Results as given in US12636285B2 (dated 2026).
Read-outs that look alike come from different tables or passages of the source.

Key:
[1] = Established and other potentially significant drug interactions (Table 5); settings: trial-based or predicted
[2] = in vivo
[3] = with anticonvulsants: carbamazepine, oxcarbazepine, phenobarbital, phenytoin
[4] = with macrolide or ketolide antibiotics: clarithromycin, erythromycin, telithromycin

SMILES: C[C@H]1CO[C@@H]2Cn3cc(C(=O)NCc4ccc(F)cc4F)c(=O)c(O)c3C(=O)N12 [Cabotegravir, (3S,11aR)-N-[(2,4-difluorophenyl)methyl]-6-hydroxy-3-methyl-5,7-dioxo-2,3,5,7,11,11a-hexahydro[1,3]oxazolo[3,2-a]pyrido[1,2-d]pyrazine-8-carboxamide]
- Effect on Concentration [1, 3]: ↓Cabotegravir
- Effect on Concentration [1, 4]: ↔Cabotegravir
- Effect on Concentration [2]: ↓Cabotegravir

SMILES: Cc1cc(/C=C/C#N)cc(C)c1Nc1ccnc(Nc2ccc(C#N)cc2)n1 [Rilpivirine, 4-[[4-[[4-[(E)-2-cyanoethenyl]-2,6-dimethylphenyl]amino]-2-pyrimidinyl]amino]benzonitrile]
- Effect on Concentration ([1]; with St John's wort (Hypericum perforatum)): ↓Rilpivirine
- Effect on Concentration [1, 3]: ↓Rilpivirine
- Effect on Concentration [1, 4]: ↑Rilpivirine
- Effect on Concentration ([1]; with systemic dexamethasone (more than a single-dose treatment)): ↓Rilpivirine
- Effect on Concentration [2]: ↓Rilpivirine
